Reference: patent US11965886B2, “Method of immobilizing a cell on a support using compounds comprising a polyethylene glycol moiety” (Roche Diagnostics Operations, Inc., priority 2013, dated 2024)

System: WBCs
Experiment: Immobilization of cells: recovery rate of cells on SA (streptavidin) plate or untreated plate (Example 3)
Type: cell-based
Details: 10 nmol/10e6 cells
Procedure: The following applies for modular description of the compounds below: X=hydrophobic moiety, […]=fluorescein In the following experiment, the recovery rate of cells was determined.

5′-(Cholesterol-TEG)1-Doubler-dT-Biotin-3′ [29.891272]
remark on cells: Vesicle formation
